Patent US20260285845A1, “INHIBITOR OF COMPLEMENT FACTOR B” (NANJING CHIA TAI TIANQING PHARMACEUTICAL CO., LTD., priority 2023, published 2026)

Tested on: collagen antibody and lipopolysaccharide-induced arthritis (CAIA)
Experiment: Collagen antibody-induced mouse arthritis model (Experimental Example 4)
Format: in vivo, BALB/c mice
Conditions: Day3; 20 mg/kg oral, twice a day
Procedure: The data were analyzed by One-way ANOVA/Dunnett's using Graphpad Prism and by Repeat Measurement ANOVA/Bonferroni using SPSS.
Arthritis scoring: Starting from the day of modeling, the incidence of arthritis in the limbs of the animals in each group was observed three times a week until the end of the experiment. According to the different degrees of lesions (erythema and swelling), the scoring was carried out according to the standard of 0-4 points.
Joint swelling: Starting from the day of modeling, the thickness of the left and right foot pads of the animals was measured three times a week using a micrometer (Mitutoyo, 0-25 mm, minimal 0.001 mm) until the end of the experiment.

With `CCO[C@H]1CCN(Cc2c(OC)cc(C)c3[nH]ccc23)[C@H](c2ccc(C(=O)O)cc2)C1` [LNP023] the “Thickness of foot pads (mm), Mean” value was 1.614 mm.
